Experimental data taken from article PMC1192819, “Molecular cloning and characterization of a nuclear androgen receptor activated by 11-ketotestosterone” (Reproductive biology and endocrinology : RB&E, 2005).

Molecular target: T1, stickleback ARβ2 (reticulocyte lysate) (Gasterosteus aculeatus, UniProt Q801Z2)
T1 sequence (Q801Z2 1-735): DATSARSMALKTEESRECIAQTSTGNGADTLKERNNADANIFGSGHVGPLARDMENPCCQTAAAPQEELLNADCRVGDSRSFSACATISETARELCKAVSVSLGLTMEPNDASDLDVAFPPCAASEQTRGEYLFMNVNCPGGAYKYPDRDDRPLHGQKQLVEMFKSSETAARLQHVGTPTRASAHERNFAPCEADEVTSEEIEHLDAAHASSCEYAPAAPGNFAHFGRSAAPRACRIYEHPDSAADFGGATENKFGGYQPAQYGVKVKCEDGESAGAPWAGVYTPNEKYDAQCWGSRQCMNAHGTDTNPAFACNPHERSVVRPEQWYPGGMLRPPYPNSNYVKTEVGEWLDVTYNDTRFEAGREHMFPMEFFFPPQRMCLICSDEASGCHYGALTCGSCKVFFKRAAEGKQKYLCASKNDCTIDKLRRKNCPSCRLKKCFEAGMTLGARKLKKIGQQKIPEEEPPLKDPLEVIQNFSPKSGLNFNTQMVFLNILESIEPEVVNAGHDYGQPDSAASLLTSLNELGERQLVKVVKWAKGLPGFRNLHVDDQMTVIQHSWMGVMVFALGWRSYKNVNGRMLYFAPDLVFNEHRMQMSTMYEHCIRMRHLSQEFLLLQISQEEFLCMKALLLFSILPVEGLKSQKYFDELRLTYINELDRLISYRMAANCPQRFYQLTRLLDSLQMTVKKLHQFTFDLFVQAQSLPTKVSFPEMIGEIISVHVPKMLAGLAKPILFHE
Assay: Ligand competition assay with 1 nM [3H]-DHT, ARβ2 containing reticulocyte extract
Format: binding, three-spined stickleback (Gasterosteus aculeatus)

Q: Which EC50 does the source give for `C[C@]12CC[C@H]3[C@@H](CCC4=CC(=O)CC[C@@]43C)[C@@H]1CC[C@@H]2O` [T, testosterone] here?
A: 3.03 ± 0.43 nM
